Target: T1, SRRM2_3-Halo (JF646 Halo ligand covalently bound to the Halo tag)
T1 construct: also called truncation 3
Assay: Halo (JF646) imaging in seeded HEK293 tau biosensor cells

B1: tau aggregates in HEK293 tau biosensor cells (4R repeat domain of tau (K18) with the P301S mutation fused to CFP or YFP, seeded with clarified tau mouse brain … (other, UniProt P10636-8 244-372, looked up)
chain: QTAPVPMPDLKNVKSKIGSTENLKHQPGGGKVQIINKKLDLSNVQSKCGSKDNIKHVSGGGSVQIVYKPVDLSKVTSKCGSLGNIHHKPGGGQVEVKSEKLDFKDRVQSKIGSLDNITHVPGGGNKKIE
notes: domain: 4R repeat domain of tau (K18); Aggregated, insoluble form inside cells; the aggregates are seeded with brain homogenate of tau transgenic mice and may hold other proteins and RNA; Number of chains in an aggregate not defined; also called cytoplasmic tau aggregates; nuclear tau aggregates; not shown: CFP or YFP fused to the repeat domain
binding result: no binding

Reference: patent US20250215059A1 (REGENTS OF THE UNIVERSITY OF COLORADO A BODY CORPORATE, published 2025)
